From ChEMBL document CHEMBL3774312, “5-Substituted 3-isopropyl-7-[4-(2-pyridyl)benzyl]amino-1(2)H-pyrazolo[4,3-d]pyrimidines with anti-proliferative activity as potent and selective inhibitors of cyclin-dependent kinases” (Eur J Med Chem, 2016)

Chains of the proteins cited; added tags and fusions are not shown.
UniProt Q00535, whole entry: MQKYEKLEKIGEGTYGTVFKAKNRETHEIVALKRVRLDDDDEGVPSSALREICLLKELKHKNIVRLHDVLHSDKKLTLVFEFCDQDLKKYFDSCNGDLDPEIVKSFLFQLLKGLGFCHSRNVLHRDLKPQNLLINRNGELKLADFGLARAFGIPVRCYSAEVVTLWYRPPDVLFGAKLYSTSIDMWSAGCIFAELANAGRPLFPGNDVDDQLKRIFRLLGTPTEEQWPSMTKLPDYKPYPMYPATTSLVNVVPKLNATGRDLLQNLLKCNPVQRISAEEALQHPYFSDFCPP

Molecular target: Cyclin-dependent kinase 5 (Homo sapiens, UniProt Q00535)

SMILES | pIC50
CCC(CO)Nc1nc(NCc2ccc(-c3ccccn3)cc2)c2[nH]nc(C(C)C)c2n1 (configuration not stated) | 8.05
CC(O)CNc1nc(NCc2ccc(-c3ccccn3)cc2)c2[nH]nc(C(C)C)c2n1 (configuration not stated) | 8.30

pIC50: −log10 of the molar value.
